## Membrane permeability of cyclic peptides

PAMPA measures passive passage through an artificial lipid membrane.
P is given in units of 10^-6 cm/s (from log10 values with two decimals); larger means faster passage.

{"smiles": "CC(=O)N1CCC[C@H]1C(=O)N[C@@H]1C(=O)N[C@H](CC(C)C)C(=O)N[C@@H](CC(C)C)C(=O)N(C)[C@H](CC(C)C)C(=O)N[C@H](CC(C)C)C(=O)N(C)[C@@H](C)C(=O)N[C@@H](CC(C)C)C(=O)N2CCC[C@@H]2C(=O)O[C@@H]1C", "PAMPA (10^-6 cm/s)": "11"}
{"smiles": "CC(=O)N1CCC[C@@H]1C(=O)N(C)[C@H](CC(C)C)C(=O)N[C@@H]1C(=O)N(C)[C@@H](CC(C)C)C(=O)N(C)[C@@H](CC(C)C)C(=O)N(C)[C@H](CC(C)C)C(=O)N(C)[C@H](C)C(=O)N[C@H](CC(C)C)C(=O)N2CCC[C@@H]2C(=O)O[C@@H]1C", "PAMPA (10^-6 cm/s)": "6.8"}
{"smiles": "CC(=O)N1CCC[C@@H]1C(=O)N(C)[C@H](CC(C)C)C(=O)N[C@@H]1C(=O)N[C@H](CC(C)C)C(=O)N(C)[C@H](CC(C)C)C(=O)N[C@H](CC(C)C)C(=O)N[C@@H](C)C(=O)N[C@@H](CC(C)C)C(=O)N2CCC[C@@H]2C(=O)O[C@@H]1C", "PAMPA (10^-6 cm/s)": "1.2"}
{"smiles": "CC(=O)N1CCC[C@@H]1C(=O)N(C)[C@H](CC(C)C)C(=O)N[C@@H]1C(=O)N[C@@H](CC(C)C)C(=O)N(C)[C@H](CC(C)C)C(=O)N(C)[C@H](CC(C)C)C(=O)N(C)[C@@H](C)C(=O)N[C@H](CC(C)C)C(=O)N2CCC[C@@H]2C(=O)O[C@@H]1C", "PAMPA (10^-6 cm/s)": "1.9"}
{"smiles": "CC(=O)N1CCC[C@@H]1C(=O)N(C)[C@H](CC(C)C)C(=O)N[C@@H]1C(=O)N[C@H](CC(C)C)C(=O)N[C@H](CC(C)C)C(=O)N(C)[C@H](CC(C)C)C(=O)N[C@@H](C)C(=O)N[C@H](CC(C)C)C(=O)N2CCC[C@H]2C(=O)O[C@@H]1C", "PAMPA (10^-6 cm/s)": "2.1"}
{"smiles": "CC(=O)N1CCC[C@H]1C(=O)N(C)[C@@H](CC(C)C)C(=O)N[C@@H]1C(=O)N(C)[C@@H](CC(C)C)C(=O)N(C)[C@H](CC(C)C)C(=O)N[C@@H](CC(C)C)C(=O)N[C@@H](C)C(=O)N[C@@H](CC(C)C)C(=O)N2CCC[C@H]2C(=O)O[C@@H]1C", "PAMPA (10^-6 cm/s)": "0.95"}
{"smiles": "CC(=O)N1CCC[C@H]1C(=O)N(C)[C@H](CC(C)C)C(=O)N[C@@H]1C(=O)N[C@H](CC(C)C)C(=O)N[C@H](CC(C)C)C(=O)N(C)[C@@H](CC(C)C)C(=O)N(C)[C@@H](C)C(=O)N[C@H](CC(C)C)C(=O)N2CCC[C@H]2C(=O)O[C@@H]1C", "PAMPA (10^-6 cm/s)": "1.4"}
{"smiles": "CC(=O)N1CCC[C@H]1C(=O)N(C)[C@@H](CC(C)C)C(=O)N[C@@H]1C(=O)N[C@@H](CC(C)C)C(=O)N[C@@H](CC(C)C)C(=O)N(C)[C@@H](CC(C)C)C(=O)N(C)[C@H](C)C(=O)N[C@H](CC(C)C)C(=O)N2CCC[C@@H]2C(=O)O[C@@H]1C", "PAMPA (10^-6 cm/s)": "0.44"}
{"smiles": "CC(=O)N1CCC[C@@H]1C(=O)N(C)[C@@H](CC(C)C)C(=O)N[C@@H]1C(=O)N(C)[C@H](CC(C)C)C(=O)N[C@H](CC(C)C)C(=O)N[C@H](CC(C)C)C(=O)N[C@H](C)C(=O)N[C@H](CC(C)C)C(=O)N2CCC[C@@H]2C(=O)O[C@@H]1C", "PAMPA (10^-6 cm/s)": "0.19"}
{"smiles": "CC(=O)N1CCC[C@H]1C(=O)N(C)[C@@H](CC(C)C)C(=O)N[C@@H]1C(=O)N[C@@H](CC(C)C)C(=O)N(C)[C@@H](CC(C)C)C(=O)N[C@@H](CC(C)C)C(=O)N(C)[C@@H](C)C(=O)N[C@H](CC(C)C)C(=O)N2CCC[C@H]2C(=O)O[C@@H]1C", "PAMPA (10^-6 cm/s)": "1"}
{"smiles": "CC(=O)N1CCC[C@H]1C(=O)N(C)[C@@H](CC(C)C)C(=O)N[C@@H]1C(=O)N(C)[C@H](CC(C)C)C(=O)N(C)[C@H](CC(C)C)C(=O)N[C@H](CC(C)C)C(=O)N(C)[C@@H](C)C(=O)N[C@@H](CC(C)C)C(=O)N2CCC[C@H]2C(=O)O[C@@H]1C", "PAMPA (10^-6 cm/s)": "5"}
{"smiles": "CC(=O)N1CCC[C@@H]1C(=O)N(C)[C@H](CC(C)C)C(=O)N[C@@H]1C(=O)N[C@@H](CC(C)C)C(=O)N[C@@H](CC(C)C)C(=O)N[C@@H](CC(C)C)C(=O)N[C@@H](C)C(=O)N[C@@H](CC(C)C)C(=O)N2CCC[C@H]2C(=O)O[C@@H]1C", "PAMPA (10^-6 cm/s)": "0.065"}
{"smiles": "CC(=O)N1CCC[C@@H]1C(=O)N(C)[C@@H](CC(C)C)C(=O)N[C@@H]1C(=O)N[C@@H](CC(C)C)C(=O)N(C)[C@H](CC(C)C)C(=O)N(C)[C@@H](CC(C)C)C(=O)N(C)[C@H](C)C(=O)N[C@@H](CC(C)C)C(=O)N2CCC[C@H]2C(=O)O[C@@H]1C", "PAMPA (10^-6 cm/s)": "3.5"}
{"smiles": "CC(=O)N1CCC[C@@H]1C(=O)N(C)[C@@H](CC(C)C)C(=O)N[C@@H]1C(=O)N[C@@H](CC(C)C)C(=O)N[C@@H](CC(C)C)C(=O)N(C)[C@H](CC(C)C)C(=O)N[C@@H](C)C(=O)N[C@@H](CC(C)C)C(=O)N2CCC[C@H]2C(=O)O[C@@H]1C", "PAMPA (10^-6 cm/s)": "1.1"}
{"smiles": "CC(=O)N1CCC[C@H]1C(=O)N(C)[C@@H](CC(C)C)C(=O)N[C@@H]1C(=O)N[C@@H](CC(C)C)C(=O)N(C)[C@H](CC(C)C)C(=O)N(C)[C@@H](CC(C)C)C(=O)N(C)[C@H](C)C(=O)N[C@@H](CC(C)C)C(=O)N2CCC[C@@H]2C(=O)O[C@@H]1C", "PAMPA (10^-6 cm/s)": "1.9"}

The 2 highest values of PAMPA among the entries above:

| compound | PAMPA (10^-6 cm/s) |
|---|---|
| CC(=O)N1CCC[C@H]1C(=O)N[C@@H]1C(=O)N[C@H](CC(C)C)C(=O)N[C@@H](CC(C)C)C(=O)N(C)[C@H](CC(C)C)C(=O)N[C@H](CC(C)C)C(=O)N(C)[C@@H](C)C(=O)N[C@@H](CC(C)C)C(=O)N2CCC[C@@H]2C(=O)O[C@@H]1C | 11 |
| CC(=O)N1CCC[C@@H]1C(=O)N(C)[C@H](CC(C)C)C(=O)N[C@@H]1C(=O)N(C)[C@@H](CC(C)C)C(=O)N(C)[C@@H](CC(C)C)C(=O)N(C)[C@H](CC(C)C)C(=O)N(C)[C@H](C)C(=O)N[C@H](CC(C)C)C(=O)N2CCC[C@@H]2C(=O)O[C@@H]1C | 6.8 |

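Conditions beyond the assay type are not listed; see the original paper. Other peptides of the study may be missing here. Peptides that the database sets to -10, its floor, are left out.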

Values of Kelly et al. 2021, doi:10.1021/jacs.0c06115, as listed in CycPeptMPDB.